molecular target: cAMP and cAMP-inhibited cGMP 3',5'-cyclic phosphodiesterase 10A (Homo sapiens, UniProt Q9Y233)

Chains of the proteins cited; added tags and fusions are not shown. Lines headed by an entry give the natural chain unless they say otherwise; changes in a name come on top.
UniProt Q9Y233: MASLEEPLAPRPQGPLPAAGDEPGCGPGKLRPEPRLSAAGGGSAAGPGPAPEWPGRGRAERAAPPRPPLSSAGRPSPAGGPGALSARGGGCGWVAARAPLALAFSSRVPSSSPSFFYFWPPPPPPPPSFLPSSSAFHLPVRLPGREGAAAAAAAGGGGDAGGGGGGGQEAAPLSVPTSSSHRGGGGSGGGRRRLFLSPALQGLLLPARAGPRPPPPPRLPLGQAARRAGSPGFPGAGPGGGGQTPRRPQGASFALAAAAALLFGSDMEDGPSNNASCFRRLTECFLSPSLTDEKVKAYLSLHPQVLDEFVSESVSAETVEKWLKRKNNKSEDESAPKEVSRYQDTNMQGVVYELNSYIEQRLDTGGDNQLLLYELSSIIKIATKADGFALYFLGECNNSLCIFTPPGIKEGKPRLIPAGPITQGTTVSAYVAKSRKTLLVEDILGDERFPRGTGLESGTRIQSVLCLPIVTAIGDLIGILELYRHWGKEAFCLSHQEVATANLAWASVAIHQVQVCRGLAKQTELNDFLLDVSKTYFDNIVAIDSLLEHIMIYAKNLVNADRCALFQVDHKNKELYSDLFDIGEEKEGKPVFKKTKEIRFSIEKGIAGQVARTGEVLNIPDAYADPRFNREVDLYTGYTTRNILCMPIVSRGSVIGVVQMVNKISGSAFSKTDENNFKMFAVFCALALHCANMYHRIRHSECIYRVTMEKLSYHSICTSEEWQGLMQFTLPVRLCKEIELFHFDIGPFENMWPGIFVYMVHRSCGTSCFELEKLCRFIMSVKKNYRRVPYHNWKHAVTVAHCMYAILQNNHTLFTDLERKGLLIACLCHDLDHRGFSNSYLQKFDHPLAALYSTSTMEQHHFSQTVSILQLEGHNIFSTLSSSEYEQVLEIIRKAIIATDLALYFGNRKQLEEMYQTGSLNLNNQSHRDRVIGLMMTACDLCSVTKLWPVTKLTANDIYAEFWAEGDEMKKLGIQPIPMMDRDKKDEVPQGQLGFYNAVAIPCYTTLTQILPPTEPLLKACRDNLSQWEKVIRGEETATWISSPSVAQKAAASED

Row | SMILES | IC50 [pM]
1 | CC(C)(O)C1CCN(c2nccnc2C2CN(C(=O)c3nc4ccccc4[nH]3)C2)CC1 | 56300
2 | COc1ncccc1-c1nccnc1C1CN(c2ccc3ccccc3n2)C1 | 2
3 | CS(=O)(=O)c1ccc(-c2nccnc2C2CN(c3ccc4ccccc4n3)C2)cc1 | 3
4 | Oc1ccc(-c2nccnc2C2CN(c3ccc4ccccc4n3)C2)cc1Cl | 2
5 | COc1cccc(-c2nccnc2C2CN(c3ccc4ccccc4n3)C2)n1 | 1
6 | OCC1CCN(c2nccnc2C2CCN(c3ccc4ccccc4n3)CC2)CC1 | 1720
